Ab-14 heavy chain CDR variants: yeast mating affinities

From the AlphaSeq antibody data of Li et al. 2023 (doi:10.1038/s41467-023-39022-2), copy in the FLAb collection.

Binding partner: SARS-CoV-2 spike HR2 peptide, sequence PDVDLGDISGINAS.

The variants keep the light chain, the linker and the frameworks of Ab-14 (scFv order VH, three GGGGS repeats, VL).
VH: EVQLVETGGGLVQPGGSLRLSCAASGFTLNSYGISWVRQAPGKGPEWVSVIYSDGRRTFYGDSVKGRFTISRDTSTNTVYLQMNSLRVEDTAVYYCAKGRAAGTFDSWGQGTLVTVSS
VL: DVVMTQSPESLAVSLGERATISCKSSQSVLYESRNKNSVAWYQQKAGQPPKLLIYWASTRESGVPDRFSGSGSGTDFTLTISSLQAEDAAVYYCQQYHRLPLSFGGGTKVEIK

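These sequences belong to a second round, designed from the earlier measurements on random variants of the parent. Group labels follow the data file (Ctrl: baseline library sampled from a position-specific scoring matrix, with some repeated check sequences; Rand: our label for a block that the file lists under HC and that is probably the random mutants of the ten best first-round binders; En: ensemble of fine-tuned language models; GP: Gaussian process model; GPLM: also part of the Gaussian process libraries; HC: hill climbing; Gen: genetic algorithm; Gibbs: Gibbs sampling; a sequence that several methods proposed may carry one label only). The assay is AlphaSeq: two haploid yeast populations carry antibody and antigen on their surface. Mating (16 h, 30 °C) was followed by selection of diploids and sequencing of their barcodes. Each replicate has its own calibration line, from reference interactions of the BCL2 family. Each pool was mated in six replicate cultures.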

Positions count from residue 1 of the parent VH; T28S puts S in place of T.
This list holds designs with at most six substitutions.
Values are apparent Kd, the geometric mean of the replicates that gave a signal; lower means stronger binding.
Where no diploid with the target was found in any replicate, the entry reads "nd": below detection, most likely a poor binder, though not proof of it.
Background: pairings of all heavy chain designs with three empty control strains gave a value in 1% of cases (median 120 nM, 5th percentile 7.0 nM). Values in that range, when seen in few replicates, are hard to tell from nonspecific mating.
A sequence that the file lists under several names has all its replicates pooled.
The range of this assay differs from that of the first round, and the authors advise against merging the two.
In the paper, a design with two or fewer of six values counts as a poor binder.

| changes | group | apparent Kd | detected |
|---|---|---|---|
| T28S+S31E+G61H+A101M | GP_Gen | 970 pM | 6/6 |
| T28S+S31D+F59L+G61I | GP_HC | 130 nM | 5/6 |
| N30D+G61H+S107Q | GP_HC | 18 nM | 6/6 |
| N30D+I34L+Y52T+F59N+F105A+D106L | Rand | nd | 0/6 |
| T28G+R100M+A101T | GP_Gibbs | 6.1 nM | 6/6 |
| L29I+S31Q+G61S+T104F | Rand | nd | 0/6 |
| T28S+S107W | Ctrl | 2.8 nM | 6/6 |
| N30G+S31Q+F59Q | Ctrl | 48 nM | 4/6 |
| F105S+S107F | Ctrl | nd | 0/6 |
| N30E+S53A+R100E | GPLM_Gen | 1.8 nM | 6/6 |
| T28D+R100V+A101T | GP_Gen | 400 pM | 6/6 |
| R56M+G61D+R100Q | Ctrl | 6.8 nM | 6/6 |
| T28D+R100E+S107C | GP_Gen | 140 nM | 6/6 |
| T28S+S31D+G61D+D106I | GP_HC | nd | 0/6 |
| T28N+Y32H | Ctrl | 120 nM | 4/6 |
| T28W+S31E+G61I+R100K+S107T | GP_Gibbs | 6.1 nM | 4/6 |
| T28R+N30D+R56I+A101D | Ctrl | 140 nM | 2/6 |
| T28E+R56K+G61A+S63Q+A101T | GP_Gibbs | 780 pM | 6/6 |
| N30D+S53C+F105A+D106L | Rand | 380 nM | 1/6 |
| G26K+T28G+D62N | Ctrl | 14 µM | 1/6 |
| G61S+R100E+T104I+S107T | GP_HC | 22 nM | 6/6 |
| D106W | Ctrl | nd | 0/6 |
| N30E+S63D+A101T | GPLM_Gibbs | 15 nM | 6/6 |
| F59A+G99L+R100Q+A101P | Ctrl | nd | 0/6 |
| R56M+G61V+A101T+D106W | GP_Gibbs | nd | 0/6 |
| G99R+F105L | Ctrl | 6.7 nM | 1/6 |
| G61E+K65D+G99D+A101Y+A102T+D106H | Ctrl | nd | 0/6 |
| S31E+I34M+G103D+S107Q | Rand | 520 nM | 1/6 |
| R100S+A101V+S107V | Ctrl+GPLM_Gibbs | 810 pM | 9/12 |
| S31E+R56Y+G61S | GP_HC | 1.4 nM | 6/6 |
| T28S+S31D+G103A | GP_HC | nd | 0/6 |
| S53A+R100F | GPLM_Gen | 660 pM | 6/6 |
| T28N+S31E+G61T+S107E | GP_HC | 11 nM | 5/6 |
| F27E+S63P | Ctrl | 2.6 µM | 1/6 |
| T28D+G61H+A101Q | GP_Gen | 4.5 nM | 6/6 |
| T28P+R56F | Ctrl | nd | 0/6 |
| T28E+R56K+G61I+R100K | GP_Gen | 1.1 nM | 1/6 |
| T28N+F59Y+A101T | GPLM_Gibbs | 9.3 nM | 6/6 |
| N30E+G61A+S63D | GPLM_Gen | 550 nM | 1/6 |
| T28K+G61K+R100Q+A101L | GP_HC | 21 nM | 2/6 |
| T28D+S31E+S53A+G61I+R100E+S107L | En_HC | 390 pM | 6/6 |
| T28Y+G61D+R100Q+A101E | GPLM_HC | 10 µM | 1/6 |
| G26M+T28S+A101T | GPLM_Gen | 69 nM | 3/6 |
| S31E+A101F+S107Q | GP_HC | nd | 0/6 |
| L29S+S53A+R56A+F105N+D106K | Rand | 600 nM | 5/6 |
| S31N+R56K+G61S | GPLM_HC | 14 nM | 6/6 |
| S31Q+S35F+G61S+T104F | Rand | nd | 0/6 |
| S31E+G61S+R100P+S107R | GP_HC | nd | 0/6 |
| S63N+R100Q+A101T+S107K | GP_Gibbs | 940 pM | 1/6 |
| G26K+T28K+G61Q+R100Q+A101T | GP_Gibbs | nd | 0/6 |
| T28S+G61A+S63R+R100E+S107K | GP_Gibbs | 28 nM | 6/6 |
| T28G+G61I+A101I | GP_HC | 64 nM | 3/6 |
| T28P+S31E+S53A+R100S | GP_HC | 400 pM | 6/6 |
| T28S+S31D+G61A+D106I | GPLM_HC | nd | 0/6 |
| N30D+R100G+T104A | Ctrl | 49 nM | 6/6 |
| S31D+F59Q+G61I+V64M+F105K | Rand | nd | 0/6 |
| S31E+R100K+A101T+S107K | GP_Gen | 2.8 nM | 6/6 |
| S31E+G103V+D106A+S107Q | GPLM_HC | 29 nM | 1/6 |
| T28G+R100K+A101T+S107V | GP_Gibbs | 13 nM | 6/6 |
| T28D+S63P+R100Q | GP_Gibbs | 11 nM | 5/6 |
| T28D+S53A+D106K | GP_HC | nd | 0/6 |

The last 9 entries again:

| changes | group | apparent Kd | detected |
|---|---|---|---|
| T28P+S31E+S53A+R100S | GP_HC | 400 pM | 6/6 |
| T28S+S31D+G61A+D106I | GPLM_HC | nd | 0/6 |
| N30D+R100G+T104A | Ctrl | 49 nM | 6/6 |
| S31D+F59Q+G61I+V64M+F105K | Rand | nd | 0/6 |
| S31E+R100K+A101T+S107K | GP_Gen | 2.8 nM | 6/6 |
| S31E+G103V+D106A+S107Q | GPLM_HC | 29 nM | 1/6 |
| T28G+R100K+A101T+S107V | GP_Gibbs | 13 nM | 6/6 |
| T28D+S63P+R100Q | GP_Gibbs | 11 nM | 5/6 |
| T28D+S53A+D106K | GP_HC | nd | 0/6 |